# What was measured:
# [1] = tested on: red blood cells (RBCs) from mice; assay: Hemolytic activity; type: cell-based; conditions: mouse RBCs 8% in PBS, peptide 12.5 µM, 1 h at 37 °C, absorbance 414 nm
# Description: To determine the hemolytic activities of the peptides against red blood cells (RBCs) from mice, RBCs were centrifuged at 2000×g for 5 min and washed with 1 mL of phosphate-buffered saline solution (PBS) three times. The supernatant was removed and the RBCs were diluted to 8% in PBS. After serial dilution, 60 µL of the RBCs and peptides were added to a 96-well plate and incubated at 37 °C for 1 h. The plate was centrifuged at 1500×g for 10 min, 100 µL of the supernatant was transferred to a new plate, and the absorbance was measured at 414 nm (Versa-Max enzyme-linked immunosorbent assay (ELISA) reader). Additionally, 0.1% Triton X-100 and PBS were used as positive and negative controls, respectively. The hemolytic activity percentage (hemolysis rate) was calculated using the following equation (Han et al. [2016]): Hemolysis percentage%=peptide solution-negative control/positive control-PBS×100.
# S. aureus ATCC 25923 = type: cell-based, Staphylococcus aureus; conditions: MHB, 2 × 10^5 CFU/mL, 18 h at 37 °C, absorbance 600 nm, triplicate
# Description: (§1) We detected the antimicrobial activity of peptides against Gram-negative bacteria (P. aeruginosa ATCC 27853 and A. baumannii KCTC 2508) and Gram-positive bacteria (S. aureus ATCC 25923 and B. subtilis KCTC 2217). The minimum inhibitory concentrations (MICs) of the parental and truncated peptides were determined using the microbroth dilution method, as previously described (Jorgensen [1993]). The bacteria were incubated overnight with shaking at 37 °C. The bacteria were diluted to 2 × 10^5 colony forming units (CFU)/mL in Mueller–Hinton broth (MHB) media. The peptides were serially diluted in 10 mM sodium phosphate buffer and then 50 µL of the bacteria and 50 µL of the peptide solutions were mixed and incubated for 18 h at 37 °C. The MICs were measured as the absorbance at 600 nm using a Versa Max microplate reader (Molecular Devices, Sunnyvale, CA, USA). The samples were analyzed in triplicate.
# P. aeruginosa ATCC 27853 = type: cell-based, Pseudomonas aeruginosa; conditions: MHB, 2 × 10^5 CFU/mL, 18 h at 37 °C, absorbance 600 nm, triplicate
# Description: as §1
smiles,measurement,setting,value
"CC[C@H](C)[C@H](NC(=O)CN)C(=O)NCC(=O)N[C@@H](C)C(=O)N[C@H](C(=O)N[C@@H](CC(C)C)C(=O)N[C@@H](CCCCN)C(=O)N[C@H](C(=O)N[C@@H](CC(C)C)C(=O)N[C@H](C(=O)N[C@H](C(=O)NCC(=O)N[C@@H](CC(C)C)C(=O)N1CCC[C@H]1C(=O)N[C@@H](C)C(=O)N[C@@H](CC(C)C)C(=O)N[C@H](C(=O)N[C@@H](CO)C(=O)N[C@@H](Cc1c[nH]c2ccccc12)C(=O)N[C@H](C(=O)N[C@@H](CCCCN)C(=O)N[C@@H](CCCNC(=N)N)C(=O)N[C@@H](CCCCN)C(=O)N[C@@H](CCCNC(=N)N)C(=O)N[C@@H](CCC(N)=O)C(=O)N[C@@H](CCC(N)=O)C(N)=O)[C@@H](C)CC)[C@@H](C)CC)[C@@H](C)O)[C@@H](C)O)C(C)C)C(C)C [Melittin, reference compound]",hemolysis,[1],approximately 91%
same,MIC,S. aureus ATCC 25923,0.78 µM
same,MIC,P. aeruginosa ATCC 27853,3.13 µM

# From PMC6667604, “Mechanism of action of antimicrobial peptide P5 truncations against Pseudomonas aeruginosa and Staphylococcus aureus” (AMB Express, 2019)
